Read-outs that look alike come from different tables or passages of the source.
Key:
healthy men = assay type: in vivo, human
Method: (§1) 11 healthy men and 10 men with previous testicular cancer and hemi-orchiectomy and/or testicular radiation were invited to participate in a prospective clinical trial, receiving 5000 IU hCG (Pregnyl) intramuscularly. They were followed longitudinally with blood- and urine sampling at baseline and 2, 8, 24, 72 and 120 hours after injection. All samples were drawn while fasting except after 8 hours. Sampling and subsequent injection at baseline and sampling at 24, 72, and 120 hours were done between 8.00 am and 9.30 am. Electro-cardiogram (ECG) was monitored at baseline and after 8 and 24 hours and QTc interval was calculated using Bazett's formula. Age, BMI and reproductive hormones on the 11 healthy men have previously been published in a baseline table. The inventors also investigated one person with an inactivating mutation in their Calcium Sensing Receptor […] heterozygote, resulting in Familial Hypocalciuric Hypercalcemia (FHH) who was evaluated in our andrological clinic fasting blood- and urine samples which were collected at baseline, 2, 24 and 72 hours after injection of 5000 IU hCG. […] Serum FSH and LH levels were also measured with Delfia, CV<5% for both. […] CTX1 (CV 8%) and P1NP (CV 8%) were both measured on IDSi10. Serum and urinal total calcium (CV 2.5%), creatinine (CV 5%), and phosphate (CV 6%), and serum calcitonin (CV 7%) and serum PTH (CV<4%) were all measured using Cobas 8000 while serum ionized calcium (CV 3%) was measured on ABL 837. Longitudinal assessment of blood- and urine samples (delta values) were calculated as fold change relative to baseline for each person with all samples' initial value starting at one. All analyses were analyzed with ANOVA with control/baseline as reference value. Every p-value presented was adjusted for multiple comparisons with Dunnett's post hoc test. However, evaluation of changes in QTc interval on ECGs was available only at two time points and therefore statistically analyzed using paired T-test.

[1] = tested on: person with Familial Hypocalciuric Hypercalcemia (FHH); test: Injection of 5000 IU hCG in a person with Familial Hypocalciuric Hypercalcemia; assay type: in vivo, human
Method: as §1

[2] = tested on: men with various testicular diseases; test: hCG stimulation test in 356 men with testicular diseases; assay type: in vivo, human; settings: for PTH: 72 hours
Method: 356 men with various testicular diseases who were all evaluated in our andrological outpatient clinic and referred for hCG stimulation test, were followed longitudinally with blood sampling at baseline and after 72 hours, as per standard protocol. […] The 356 men comprised of 110 patients with previous testicular cancer, 28 other types of previous cancer, 57 with gynecomastia, 44 infertile men, 54 men with hypogonadism and the remaining with various testicular/pituitary conditions. […] Serum FSH and LH levels were measured with Delfia, CV<5% for both. Serum and urine total calcium (CV 2.5%) and serum PTH (CV<4%) were all measured using Cobas 8000 while serum ionized calcium (CV 3%) was measured on ABL 837. Longitudinal assessment of blood- and urine samples (delta values) were calculated as fold change, relative to baseline for each person, with all samples' initial value starting at one. All analyses were analyzed with ANOVA with control/baseline as reference value and every p-value presented was adjusted for multiple comparisons with Dunnett's post hoc test.

human kidney tissue = test: Ex vivo culture of human kidney tissue, qRT-PCR gene expression; assay type: cell-based
Method: Human kidney tissues from 5 adults (4 men, 1 […]) were cultured. All donors underwent partial nephrectomy due to suspected malignant kidney tumors and a pathologist removed tissues outside the malignant area. Kidney specimens were dissected in small pieces 1 mm^3 and cultured for either 3 or 24 hours in a hanging drop ex vivo model. Tissues were treated with either vehicle (media containing DMEM, insulin-transferrin-selenium, penicillin, streptomycin and 10% fetal bovine serum) or media also containing one of the following: PTH (0.01 pg/mL), LH (1 IU/mL), hCG (1 IU/mL), estradiol (1 nmol/L) or testosterone (50 nmol/L) and subsequently stored at −80° C. for subsequent RNA purification and cDNA synthesis.
Gene expression profiling was done by qRT-PCR analyzing levels of calcium transporters SLC12A-1, SLC12A-2, TRPV5 as well as calcium-sensing receptor (CASR). The inventors also measured kidney expression of exon 2-4 and 11 of LHCGR using a primer-sequence previously validated by sequencing of the product from both serum and testis tissue. As calcium transporters are differentially expressed in the different parts of the nephron, all samples were standardized according to the expression of Uromodulin (UMOD), a protein located in the thick ascending limb of the loop of Henle and subsequently to MAP3K7 expressed in the distal convoluted tubules and in addition to being standardized to the housekeeping gene, RPS20. Ethical committee approval: H-17004362. All samples were analyzed with ANOVA with control/baseline as reference value and every p-value presented was adjusted for multiple comparisons with Dunnett's post hoc test.

[3] = tested on: male wild type mice (C57BL/6); test: Brown fat mass in mice treated with LH or hCG for 10 days; assay type: in vivo; settings: high and repeated dosing
Method: Eight weeks old male wild type mice (C57BL/6) caged at Biotest Facility, Trige, Denmark, were treated for 10 days with either vehicle (n=12; NaCl 0.9%×1 daily s.c.), LH (n=8; 66.7 IU/kg×1 daily s.c.), or hCG (n=8; 666.7 IU/kg, every other day, i.p.). At termination, blood and fat sampling was performed, animals were sacrificed and body weight was assessed. Danish Animal Experiments Inspectorate License no. 2019-15-0201-00236. All analyses of mice serum, urine, and organ weight were analyzed with ANOVA with control/baseline as reference value and every p-value presented was adjusted for multiple comparisons with Dunnett's post hoc test.

In the case of “hCG: human chorionic gonadotropin (Pregnyl), LHCGR agonist with longer serum half-life than LH”, the “increase in CCCR” value (healthy men; 8 hours after injection) is reported as 2.5 fold, the “increase in U-Calcium/U-creatinine ratio” value (healthy men; 8 hours after injection) is reported as 2.4 fold and the “serum 1,25-dihydroxy vitamin D increase” value (healthy men; 72 hours after injection) is reported as 69%. For the same substance, the “serum 1,25-dihydroxy vitamin D increase” value (healthy men; 120 hours after injection) was 89%, the Total calcium (healthy men; after 24 hours) was “significantly lower” and the albumin levels (healthy men; after 24 hours) was “significant reduction”. The estradiol peak increase (healthy men; after 24 hours, relative to baseline) was 3.5 fold, the testosterone peak increase (healthy men; after 72 hours, relative to baseline) was 2.2 fold and the “serum PTH” value (healthy men; after hCG injection) was “immediate increase”. The CCCR elevated (healthy men; after two hours) was 36%, the U-Calcium/U-creatinine ratio elevated (healthy men; after two hours) was 46% and the “serum concentration of ionized- and total calcium” value (healthy men; early after injection, not statistically significant) was “concomitant drop”. The “Serum calcitonin, early phase” value (healthy men; early hypercalciuric phase) was “elevated during the early hypercalciuric phase”, the “increase in serum CTX1” value (healthy men; fasting serum) was 24% and the “Serum calcitonin, late phase” value (healthy men; from 24 hours and onwards) was “lower than baseline”. For the same substance, the QTc interval (healthy men; in vivo) was 407 ms, the “QTc interval versus baseline” value (healthy men; in vivo) was “no significant difference” and the “serum 25-OHD” value (healthy men; in vivo) was “unchanged”. The “serum- or urinary phosphate or phosphate excretion” value (healthy men; in vivo) was “no significant change”, the “LH and FSH” value (healthy men; serum, after hCG injection) was “decrease” and the “urinary excretion (calcium) higher than baseline levels” value (healthy men; throughout the study period) was 50%. For the same substance, the urinary calcium excretion ([1]; 2 hours upon injection, compared to healthy men) was “strikingly increased”, the Serum albumin ([1]; after 24 hours) was “increased” and the “FSH and LH suppressed” value ([1]; after 72 hours) was “more than 60%”. For the same substance, the “serum ionized calcium and total calcium” value ([1]; after both 24 and 72 hours) was “drastic drop”, the sex steroids ([1]; compared with the 11 healthy men) was “large increase” and the P1NP ([1]; in vivo) was “increased”. The PTH ([1]; in vivo) was “increase in PTH within the range of the healthy men”, the serum phosphate ([1]; in vivo) was “more pronounced decrease” and the CTX1 ([1]; still evident after 72 hours) was “substantial increase”. The “serum ionized calcium levels (mean)” value ([2]; 72 hours after injection, other value 1.208, no change) was 1.209 mmol/L, the “serum PTH (mean)” value ([2]; 72 hours after injection, other value 5.39, no change) was 5.42 pmol/L and the PTH ([2]; men with baseline PTH above normal range (>6.9 pmol/L)) was “significant, persistent drop”. The calcium ([2]; men with deficient increase in testosterone (3-6 nmol/L)) was “modest decrease in calcium”, the calcium ([2]; men with insufficient increase in testosterone (<3 nmol/L)) was “corresponding drop in calcium” and the PTH ([2]; men with normal baseline PTH (≤6.9 pmol/L)) was “significant, persistent increase”. For the same substance, the serum calcium ([2]; men with sufficient increase in testosterone (6-12 or >12 nmol/L)) was “increase in serum calcium”, the “expression levels of CASR and calcium transporters SLC12A-1, SLC12A-2, SLC12A-3” value (human kidney tissue; 3 or 24 hours culture) was “no transcriptional changes” and the “expression of LHCGR exon 2-4” value (human kidney tissue; three hours culture) was “tendency towards increased expression”. For the same substance, the brown fat mass [3] was “reduced brown fat mass significantly”.
